Data on five substances can be found in patent US10973762B2, “Active-targeting-type polymer derivative, composition containing said polymer derivative, and uses of said polymer derivative and said composition” (Nippon Kayaku Kabushiki Kaisha, priority 2016, dated 2021).

Like-named read-outs stand apart in the source and are kept apart here.

One data set deals with human glioma U87MG. As to the kind of experiment: Test Example 3: intratumor tissue distribution (fluorescence of sections). The format is in vivo, nude mice. The following applies: one hour after i.v. administration, 5 mg/kg in terms of fluorescent substance. As for the experimental part: (§1) A suspension of cultured cancer cell human glioma U87MG was subcutaneously transplanted on the dorsal sides of nude mice using an injection needle-attached syringe. Example 3, Comparative Example 4, and Comparative Example 5 were dissolved in a 5% glucose injectable solution, and each of the solutions was intravenously administered a single time in an amount of 5 mg/kg in terms of 2-(2-aminoethoxy)-9-(diethylamino)-5H-benzo[a]phenoxazin-5-one.
(§2) After one hour and after 24 hours from the administration, the mice were exsanguinated under isoflurane anesthesia, and frozen embedded sections of extracted tumor and kidney were produced. Fluorescence derived from 2-(2-aminoethoxy)-9-(diethylamino)-5H-benzo[a]phenoxazin-5-one in the administered composition was observed.
(§3) Furthermore, luminance was calculated based on those images using an Image-Pro Premier (Media Cybernetics, Inc.). The values of luminance of tumor tissue sections are shown in FIG. 5, and the values of luminance of kidney tissue sections are shown in FIG. 7.

Data set [1] in a line: Average particle size, single nanoparticle size analyzer IG-1000. The format is physicochemical. The following applies: 2 mg/mL. The procedure: The measurement of the average particle size of the compositions including block copolymers of Examples 3 to 10 and Comparative Examples 1 to 6 was carried out using a single nanoparticle size analyzer, IG-1000, manufactured by Shimadzu Corp. (measurement temperature: 25° C., light intensity at t=0: 100 to 200).
Regarding a sample for measuring the average particle size, a solution produced to have a concentration of 2 mg/mL or 5 mg/mL in terms of the composition weight and filtered through a 0.45-μm membrane filter, was used.

A short description of data set [2]: Test Example 3: intrarenal tissue distribution (fluorescence of sections). It is filed as in vivo, nude mice. Particulars: i.v. 5 mg/kg in terms of fluorescent substance. The procedure:
as §1, §2, §3

The conditions of data set [3]: 1 mg/mL, Zetasizer Nano ZS.

“4-phenyl-1-butanol-bonded and 2-(2-aminoethoxy)-9-(diethylamino)-5H-benzo[a]phenoxazin-5-one-bonded product of polyethylene glycol (2 kilodaltons)-polyglutamic acid (7.9 polymerizations) block copolymer [Comparative Example 5]”: the “intratumor distribution of fluorescence” value with human glioma U87MG is “penetration into the entire tumor and fluorescent signals were observed in a wider region”. Also, the average particle size in data set [1] came to 13 nm. Besides, the “intrarenal distribution of fluorescence” value in data set [2] was “fluorescence was observed in the blood vessels and in the renal tubules”.
Regarding “4-phenyl-1-butanol-bonded and 2-(2-aminoethoxy)-9-(diethylamino)-5H-benzo[a]phenoxazin-5-one-bonded product of polyethylene glycol (10 kilodaltons)-polyglutamic acid (21.0 polymerizations) block copolymer [Comparative Example 1]”, the average particle size in data set [1] was determined as 18 nm.
On to “4-phenyl-1-butanol-bonded and 2-(2-aminoethoxy)-9-(diethylamino)-5H-benzo[a]phenoxazin-5-one-bonded product of polyethylene glycol (12 kilodaltons)-polyglutamic acid (22.0 polymerizations) block copolymer [Comparative Example 4]”, for which the “intratumor distribution of fluorescence” value in the data set on human glioma U87MG is reported as “penetration into the tumor was poor”. The substance further displayed an average particle size in data set [1] of 36 nm. Besides, the “intrarenal distribution of fluorescence” value in data set [2] is “fluorescence was not recognized in areas other than the blood vessels in the kidney”.
Substance “4-phenyl-1-butanol-bonded product of ester polyethylene glycol (2 kilodaltons)-polyglutamic acid (7.8 polymerizations) block copolymer having cyclo[Arg-Gly-Asp-D-Phe-Lys(Cys)] (cRGDfK(C)) bonded thereto and having 4-maleimidobutyric acid-N-hydroxysuccinimide at one terminal [Example 1-2B]” showed an average particle size in data set [3] of 22 nm.
Turning to “4-phenyl-1-butanol-bonded product of polyethylene glycol (2 kilodaltons)-polyglutamic acid (7.8 polymerizations) block copolymer having cyclo[Arg-Gly-Asp-D-Phe-Cys] (cRGDfC) bonded thereto and having 4-maleimidobutyric acid-N-hydroxysuccinimide ester bonded to one terminal [Example 1-1]”, the average particle size in data set [3] was determined as 25 nm.
